One experiment concerns the target T1, Interstitial collagenase (Homo sapiens, UniProt P03956).
T1 sequence (P03956 whole entry): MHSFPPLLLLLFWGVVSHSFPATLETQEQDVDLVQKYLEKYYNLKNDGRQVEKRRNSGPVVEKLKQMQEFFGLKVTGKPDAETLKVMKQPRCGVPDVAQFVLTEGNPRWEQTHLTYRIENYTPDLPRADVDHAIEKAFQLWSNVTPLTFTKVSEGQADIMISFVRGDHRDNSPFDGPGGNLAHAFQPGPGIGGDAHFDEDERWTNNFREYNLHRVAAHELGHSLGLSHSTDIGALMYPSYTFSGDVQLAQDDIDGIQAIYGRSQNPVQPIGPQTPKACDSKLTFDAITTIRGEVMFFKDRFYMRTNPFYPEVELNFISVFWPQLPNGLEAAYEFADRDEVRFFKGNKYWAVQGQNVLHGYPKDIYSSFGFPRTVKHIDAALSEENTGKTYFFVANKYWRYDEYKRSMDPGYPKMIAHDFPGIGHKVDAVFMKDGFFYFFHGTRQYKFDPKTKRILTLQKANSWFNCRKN

Another experiment has as its target Collagenase 3 (Homo sapiens, UniProt P45452).

In ChEMBL document CHEMBL5726859, “5-[(piperazin-1-yl)-3-oxo-propyl]-imidazolidine-2,4-dione derivatives as ADAMTS inhibitors for the treatment of osteoarthritis” (2018) one finds IC50 data, which are given here for two compounds.

As to `C[C@H]1CN(C(=O)CC[C@@]2(C3CC3)NC(=O)NC2=O)CCN1c1cc(F)cc(F)c1`, the half-maximal inhibitory concentration (IC50) on Interstitial collagenase is more than 30 µM.

Turning to `Cc1cc(Cl)c(Cl)cc1N1CCN(C(=O)CCC2(C)NC(=O)NC2=O)CC1` (configuration not stated), on Collagenase 3, the IC50 is more than 20 µM.
